The test system of this experiment is T1, CoREST complex.
T1 construct: rows headed: IC50 CoREST; other: complex co-immunoprecipitated from A549 cells; unit not given
Nature of the experiment: Fluorescence-based deacetylase assay of cell-derived HDAC complex, CoREST. As to conditions: complex co-immunoprecipitated from A549 cells; unit inferred. In kind it is biochemical.

In patent publication US20260041653A1, “AN HDAC INHIBITOR FOR TREATING CANCER WITH A MODIFIED STK11 ACTIVITY OR EXPRESSION” (Tango Therapeutics, Inc., priority 2022, published 2026) one finds IC50 data, which are given here for one molecule.

Regarding `O=C(CCCCCCC(=O)Nc1ccccc1)NO` [Vorinostat, reference compound], the IC50 (in general, the concentration that gives 50% inhibition) came out at 61 nM.
